Assay results: patent US20100267697A1, “ION CHANNEL MODULATORS” (Wyeth, priority 2006, published 2010)

Amino acid sequences for entries named in this document (tags omitted). A change or cut given only in a name is not applied to a line headed by its entry. Residues count along the entry.
UniProt Q00975, whole entry: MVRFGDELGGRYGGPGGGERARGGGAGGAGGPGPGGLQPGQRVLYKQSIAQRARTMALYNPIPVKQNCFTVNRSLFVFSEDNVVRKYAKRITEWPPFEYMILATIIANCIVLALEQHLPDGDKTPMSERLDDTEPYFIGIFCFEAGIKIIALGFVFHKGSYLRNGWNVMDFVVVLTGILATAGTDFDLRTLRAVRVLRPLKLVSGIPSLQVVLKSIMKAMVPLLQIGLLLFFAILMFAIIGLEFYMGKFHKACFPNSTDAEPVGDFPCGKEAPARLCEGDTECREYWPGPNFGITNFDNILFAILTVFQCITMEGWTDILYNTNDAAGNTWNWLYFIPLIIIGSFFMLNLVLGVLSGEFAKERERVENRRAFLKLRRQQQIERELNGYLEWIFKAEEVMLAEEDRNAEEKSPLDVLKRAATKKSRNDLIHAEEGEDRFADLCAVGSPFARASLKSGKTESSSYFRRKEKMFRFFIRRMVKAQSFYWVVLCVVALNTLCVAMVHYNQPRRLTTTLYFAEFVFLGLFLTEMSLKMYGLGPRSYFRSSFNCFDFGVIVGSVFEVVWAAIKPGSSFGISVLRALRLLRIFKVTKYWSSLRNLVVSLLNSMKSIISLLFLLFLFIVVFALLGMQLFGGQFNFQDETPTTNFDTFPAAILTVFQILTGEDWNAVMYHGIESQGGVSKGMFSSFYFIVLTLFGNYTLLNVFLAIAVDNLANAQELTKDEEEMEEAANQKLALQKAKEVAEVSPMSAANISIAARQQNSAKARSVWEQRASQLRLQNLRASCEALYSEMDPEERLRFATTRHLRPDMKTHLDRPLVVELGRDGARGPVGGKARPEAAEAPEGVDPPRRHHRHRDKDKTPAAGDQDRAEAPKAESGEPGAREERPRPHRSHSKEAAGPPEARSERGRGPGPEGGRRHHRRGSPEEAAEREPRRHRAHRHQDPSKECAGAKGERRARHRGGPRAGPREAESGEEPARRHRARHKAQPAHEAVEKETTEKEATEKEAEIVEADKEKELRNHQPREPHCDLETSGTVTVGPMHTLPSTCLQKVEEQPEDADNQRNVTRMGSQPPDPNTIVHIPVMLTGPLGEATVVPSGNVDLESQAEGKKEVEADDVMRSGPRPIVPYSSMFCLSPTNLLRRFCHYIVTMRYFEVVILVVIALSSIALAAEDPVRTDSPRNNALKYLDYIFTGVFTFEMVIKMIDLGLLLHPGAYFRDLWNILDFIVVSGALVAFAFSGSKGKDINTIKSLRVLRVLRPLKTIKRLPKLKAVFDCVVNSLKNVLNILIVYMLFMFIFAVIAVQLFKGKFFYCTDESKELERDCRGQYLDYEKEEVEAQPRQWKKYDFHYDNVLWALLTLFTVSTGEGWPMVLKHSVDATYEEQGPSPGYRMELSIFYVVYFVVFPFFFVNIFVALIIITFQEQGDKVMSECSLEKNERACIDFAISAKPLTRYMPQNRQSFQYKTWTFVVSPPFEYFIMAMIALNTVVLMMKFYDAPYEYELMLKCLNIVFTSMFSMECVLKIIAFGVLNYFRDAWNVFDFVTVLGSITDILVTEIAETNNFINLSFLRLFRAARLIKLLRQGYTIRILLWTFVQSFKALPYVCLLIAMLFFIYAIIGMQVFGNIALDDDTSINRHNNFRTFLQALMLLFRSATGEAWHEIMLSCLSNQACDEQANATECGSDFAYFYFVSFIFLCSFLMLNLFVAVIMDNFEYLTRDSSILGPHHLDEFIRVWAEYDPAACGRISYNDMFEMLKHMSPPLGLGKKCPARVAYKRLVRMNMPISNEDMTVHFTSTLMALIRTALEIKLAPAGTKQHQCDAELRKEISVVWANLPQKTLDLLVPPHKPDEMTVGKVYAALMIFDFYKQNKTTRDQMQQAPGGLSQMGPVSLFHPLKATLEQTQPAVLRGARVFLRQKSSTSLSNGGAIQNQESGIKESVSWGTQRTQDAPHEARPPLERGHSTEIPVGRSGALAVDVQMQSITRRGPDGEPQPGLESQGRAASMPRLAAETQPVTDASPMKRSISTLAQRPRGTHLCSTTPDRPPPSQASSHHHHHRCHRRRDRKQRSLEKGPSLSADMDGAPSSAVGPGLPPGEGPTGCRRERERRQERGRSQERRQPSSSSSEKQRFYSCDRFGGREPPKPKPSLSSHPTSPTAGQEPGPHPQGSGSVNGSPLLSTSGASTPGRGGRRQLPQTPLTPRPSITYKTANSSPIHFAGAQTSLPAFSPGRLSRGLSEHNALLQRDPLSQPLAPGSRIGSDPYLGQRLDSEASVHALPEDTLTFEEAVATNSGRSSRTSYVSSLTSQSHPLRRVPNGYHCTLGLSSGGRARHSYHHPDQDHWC
UniProt P54289, 25-946 partner limits assumed: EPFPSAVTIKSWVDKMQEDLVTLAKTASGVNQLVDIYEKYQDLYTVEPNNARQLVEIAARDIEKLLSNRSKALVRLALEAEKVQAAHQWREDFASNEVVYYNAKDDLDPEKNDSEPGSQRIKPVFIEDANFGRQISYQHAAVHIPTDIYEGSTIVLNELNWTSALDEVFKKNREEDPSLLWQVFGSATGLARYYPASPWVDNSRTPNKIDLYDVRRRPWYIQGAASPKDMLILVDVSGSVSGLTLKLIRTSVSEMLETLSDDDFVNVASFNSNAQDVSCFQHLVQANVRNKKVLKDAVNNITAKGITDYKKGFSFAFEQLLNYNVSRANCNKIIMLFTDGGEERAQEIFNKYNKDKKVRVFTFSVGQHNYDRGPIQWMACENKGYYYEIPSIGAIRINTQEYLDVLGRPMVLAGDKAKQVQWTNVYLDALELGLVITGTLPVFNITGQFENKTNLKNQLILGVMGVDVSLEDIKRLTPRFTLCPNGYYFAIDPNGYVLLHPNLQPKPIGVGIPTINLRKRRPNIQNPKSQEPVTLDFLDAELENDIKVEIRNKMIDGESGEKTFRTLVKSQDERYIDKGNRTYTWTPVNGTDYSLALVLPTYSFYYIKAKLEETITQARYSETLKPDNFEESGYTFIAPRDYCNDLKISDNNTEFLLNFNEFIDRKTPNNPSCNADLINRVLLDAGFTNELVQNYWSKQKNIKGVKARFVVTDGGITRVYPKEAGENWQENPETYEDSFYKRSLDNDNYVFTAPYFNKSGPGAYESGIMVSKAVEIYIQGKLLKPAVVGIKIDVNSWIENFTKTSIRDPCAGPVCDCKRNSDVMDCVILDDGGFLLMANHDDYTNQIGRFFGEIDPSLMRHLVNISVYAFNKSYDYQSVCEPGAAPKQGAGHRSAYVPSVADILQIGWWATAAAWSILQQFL
UniProt P54289, 947-1103 partner limits assumed: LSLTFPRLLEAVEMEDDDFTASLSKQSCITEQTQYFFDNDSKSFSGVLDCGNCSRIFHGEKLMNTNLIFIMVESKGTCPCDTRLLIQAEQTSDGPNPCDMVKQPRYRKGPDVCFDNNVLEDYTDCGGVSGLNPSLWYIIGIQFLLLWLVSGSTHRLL
UniProt P54284, whole entry partner: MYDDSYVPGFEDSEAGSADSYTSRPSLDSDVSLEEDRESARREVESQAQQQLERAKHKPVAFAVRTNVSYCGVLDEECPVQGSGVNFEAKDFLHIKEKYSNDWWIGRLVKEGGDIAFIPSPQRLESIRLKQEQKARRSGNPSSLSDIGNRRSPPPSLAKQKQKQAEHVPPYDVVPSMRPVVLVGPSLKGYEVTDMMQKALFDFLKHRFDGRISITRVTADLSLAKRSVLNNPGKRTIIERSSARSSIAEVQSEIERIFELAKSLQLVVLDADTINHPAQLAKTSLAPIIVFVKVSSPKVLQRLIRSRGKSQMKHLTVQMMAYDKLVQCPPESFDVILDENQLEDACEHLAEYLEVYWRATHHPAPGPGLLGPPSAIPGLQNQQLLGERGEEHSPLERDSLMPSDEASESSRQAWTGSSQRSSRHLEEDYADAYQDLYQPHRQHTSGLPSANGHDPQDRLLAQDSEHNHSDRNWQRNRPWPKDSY

Molecular target: human Cav2.2 (composed of the subunits α1, β3 and α2δ) (Homo sapiens, UniProt Q00975)
Experiment: FLIPR assay (TSA201 cells stably transfected with human Cav2.2 and human Kir2.3, FLUO-4 Ca2+ signal, KCl depolarization)
Settings: read-out: FLIPR Cav2.2 IC50, 70 mM KCl depolarization, average value, tested form: HCl

CC(C)(C)C(=O)N(Cc1csc(N2CCC3CCCCC3C2)n1)c1ccc(F)cc1 (stereo not shown)
IC50: 2.7 µM
